BindingDB's records for doi:10.1016/j.ejphar.2004.03.050 (Memorial Sloan-Kettering Cancer Center, 2004)

Sequences of proteins named here, by UniProt entry; tags and fusion partners are left off.
UniProt P79350, whole entry: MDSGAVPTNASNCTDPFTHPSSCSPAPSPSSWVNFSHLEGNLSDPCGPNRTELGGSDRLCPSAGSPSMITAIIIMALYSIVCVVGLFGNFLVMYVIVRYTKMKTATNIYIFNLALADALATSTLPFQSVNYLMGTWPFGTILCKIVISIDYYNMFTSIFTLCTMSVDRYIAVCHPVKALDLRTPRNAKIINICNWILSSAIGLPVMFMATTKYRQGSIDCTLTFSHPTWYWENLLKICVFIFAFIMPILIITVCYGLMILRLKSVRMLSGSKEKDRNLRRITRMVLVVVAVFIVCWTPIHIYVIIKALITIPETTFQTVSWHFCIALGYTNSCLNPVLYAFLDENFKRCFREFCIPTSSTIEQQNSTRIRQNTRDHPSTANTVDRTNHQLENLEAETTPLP

Target: Mu-type opioid receptor (Bos taurus, UniProt P79350)

CN1CCC23c4c5ccc(O)c4OC2C(O)CCC3C1C5 (stereo unspecified) [CAS_509-60-4]
Ki: 230 pM
